Source: PubChem BioAssay (EPA / NIEHS)
This is a selection; strong and weak results do not stand in their true shares. Records with an inconclusive call do not appear. Activity calls are given as the source filed them. How the source made its calls: active means hit-call score of the fitted dose curve at least 0.9, where 1 is the maximum; inconclusive means response in the unintended direction; inactive means score below 0.9.

Test: ATG_M_32_TRANS: Attagene TRANS-FACTORIAL HepG2 Assay for M32 Transcription Factor (Internal Marker) (AID 2282984)
Settings: HepG2 Attagene TRANS M32 internal marker reporter
Protocol: ATG_TRANS is a cell-based, multiplexed-readout assay that uses HepG2, a human liver cell line, with measurements taken at 24 hours after chemical dosing in a 24-well plate.ATG_M_32_TRANS is one of 30 assay component(s) measured or calculated from the ATG_TRANS assay. It is designed to make measurements of mRNA induction, a form of inducible reporter, as detected with fluorescence intensity signals by Reverse transcription polymerase chain reaction (RT-PCR) and Capillary electrophoresis technology.Data from the assay component ATG_M_32_TRANS was analyzed into 1 assay endpoint. This assay endpoint, ATG_M_32_TRANS, was analyzed in the positive analysis fitting direction relative to DMSO as the negative control and baseline of activity. Using a type of inducible reporter, measures of mRNA for gain-of-signal activity can be used to understand the background control at the transcription factor-level as they relate to the gene . Furthermore, this assay endpoint can be referred to as a secondary readout, because this assay has produced multiple assay endpoints where this one serves a background control function. To generalize the intended target to other relatable targets, this assay endpoint is annotated to the background measurement intended target family, where the subfamily is internal marker.
Human liver HepG2 cells are transiently transfected with multiple reporter transcription units (MRTUs) in 6-well plates using FuGene 6 reagent (Roche; 3 ml FuGene/1 mg DNA). The MRTU constructs are regulated by a cis-regulating element (promoter). […] A major difference between the CIS and TRANS system is that in CIS activities of endogenous TFs are measured, whereas the TRANS assay evaluates changes in activities of exogenous, chimeric NR-Gal4 proteins. […] At the end of 24 hour incubation, total RNA was isolated using TriZol reagent (Invitrogen). The isolated RNA is then reverse-transcribed using oligo(dT) primer and Mo-MLV reverse transcriptase (Invitrogen) with DNAse I (Ambion) treatment for 30 min. The one-tenth of the produced cDNA was amplified by PCR using Taq DNA polymerase (Invitrogen) and two reporter sequence-specific primers. The PCR products were fluorescently labeled by primer extension with 6-arboxyfluorescein (6-FAM) 5'-labeled reporter sequence-specific primer (2 min at 95 C, 20 s at 68 C and 10 min at 72 C) and these products were digested with 5U of HpaI (New England Biolabs) for 2h at 37 C. The fragments were purified using Qiaquick PCR columns (Qiagen), analyzed on an ABI 3130xL genetic analyzer (Applied Biosystems) with peak positions identified by using a set of X-rhodamine (ROX)-labeled MapMarker1000 molecular weight standards (BioVentures). The raw capillary electrophoresis data was processed using Attagraph software (Attagene).

SMILES	outcome
O=[P+](Oc1ccccc1)Oc1ccccc1	inactive
CCCCO[P+](=O)OCCCC	inactive
CN(C(=O)Cc1cccc2occc12)[C@H]1CC[C@@]2(CCCO2)C[C@@H]1N1CCCC1	inactive
CC(C)CCCCCCCOP(OCCCCCCCC(C)C)Oc1ccccc1	inactive
O=[N+]([O-])c1ccc([N+](=O)[O-])cc1	inactive
N#CSc1ccc([N+](=O)[O-])cc1[N+](=O)[O-]	inactive
O=C(Cl)Oc1ccccc1	inactive
Cc1cc([N+](=O)[O-])cc([N+](=O)[O-])c1O	inactive
O=C1C2CC=CCC2C(=O)N1SC(Cl)(Cl)C(Cl)Cl (stereo not drawn)	inactive
O=[p+]1oc2ccccc2c2ccccc21 (stereo not drawn)	inactive
O=[As]c1ccccc1 (stereo not drawn)	inactive
ClP(Cl)c1ccccc1	inactive
O=P(Cl)(Oc1ccccc1)Oc1ccccc1	inactive
